Reference: patent publication US11697772B2, “Hydrotropic composition and its uses” (KEMIRA OYJ, priority 2017, dated 2023)

Experiment: Critical micelle concentration by optical pendant drop method (surface tension)
Assay type: physicochemical
Settings: in water, superscript L logarithmic fitting, S sigmoidal fitting

## choline decanoate [Ch Decanoate]
  CMC (critical micelle concentration): 23 ± 4^L mM
Listed as Ch decanoate
  CMC (critical micelle concentration): 23 ± 4 mM
